PTAP TSG101 blk: blocks PTAP/TSG101 interaction to inhibit HIV-1 budding. Q99816. Fluorescence polarization, FITC-PTAP peptide / Tsg101 binding. Potency, µM (top dose mostly 115 µM), inactives show at the highest dose activity change, negative = inhibition, usual class: inhibitors. 340,000 tested, under 10 active. AID 493005; active = well fitted inhibition curve with a large enough effect in the main read-out, with a control signal flat, not every such curve was filed as active; inconclusive = small, poorly fitted or top-dose-only effect, or effect the other way, or a change in a side signal; inactive = no such curve, though single readings can be large or run the other way; also: potency is read from the fitted curve at half-maximal effect; % of control where 0% means no effect
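Compounds were pin-transferred onto Tsg101 binding domain (10 uM final) in HEPES pH 7.5 buffer, then FITC-PTAP peptide was added at 50 nM final. After 20 min at RT, polarization reported peptide displacement across a qHTS concentration series.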
PTHR1 ag: PTHR1 (human) receptor agonism; Q03431; HEK293 GP2 PTHR1 cells, GloSensor cAMP luminescence, 1 h; Potency, µM (series often up to 115 µM), inactives show at the top dose activation, usual class: activators; 410,000 compounds, 0.075% hits; AID 743266; also: potency is read from the fitted curve at half-maximal effect; nearly all actives have a fitted effect of over 55% in size
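HEK-293-derived GP2 cells expressing PTHR1 and a GloSensor cAMP reporter, 3,000/well, plated overnight, given luciferin plus IBMX (each 0.5 mM as added) for 1 h at 37 °C, then compound for 1 h at 37 °C. Luminescence was read after 15 min at room temperature.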
GLS inh: blocks human kidney-isoform glutaminase activity. O94925. GLS enzymatic activity, qHTS titration. Potency, µM (titrated, usually from 45.5 µM), for inactives: top-dose activity change, negative = inhibition, usual class: inhibitors. 410,000 compounds, 0.21% hits; also: potency is read from the fitted curve at half-maximal effect; % is scaled to controls: 0 for no effect and ±100 for the full control effect
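Compounds were pin-transferred onto hKGA, after which L-glutamine (1 mM solution) and a detection mix of glutamate oxidase, HRP and Amplex Red were added. Initial and 30 min RT fluorescence reads were collected.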
USP2a inh: USP2a (human) protease inhibition | USP2 core, Ub-CHOP2 coupled fluorogenic reporter, 485/531 | Potency, µM (highest dose often 38.3 µM), for inactives: at the highest dose activity change, negative = inhibition, usual class: inhibitors | 330,000 compounds, 0.01% hits | AID 463254;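 also: potency is read from the fitted curve at half-maximal effect; plate controls were DMSO wells for no effect and full inhibition by NEM control for full effect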
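Cell-free coupled assay: 10nM USP2 core preincubated 30min RT with compound in Tris-HCl pH 8.0/CaCl2/CHAPS buffer, then 25nM Ub-CHOP2 and 25nM reporter substrate; fluorescence (Ex 485/Em 531) read after 60min RT, normalized to NEM inhibition, concentration-response curves fitted.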
Eya2 inh: Eya2 (human) phosphatase inhibition; O00167; recombinant Eya2, OMFP fluorescence dephosphorylation (OMFP is methylfluorescein phosphate); Potency, µM (doses to about 76.9 µM), inactives show at the top dose activity, negative = inhibition, usual class: inhibitors; 330,000 compounds, 0.006% hits; AID 488837; also: potency is read from the fitted curve at half-maximal effect; % is scaled to controls: 0 for no effect and ±100 for the full control effect
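Eya2 protein (added as 0.2 uM solution) was preincubated with compound for 10 min at ambient temperature in 50 mM HEPES pH 7.5, 50 mM NaCl, 5 uM MgCl2, 0.05% BSA, 1 mM DTT. OMFP (added at 50 uM) then reacted 10 min; fluorescence read at 485/525 nm.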
miR-21 reporter: miR-21 reporter, rising signal; HeLa miR-21 FLuc reporter, luciferase, 48 h; Potency, µM (doses to about 38.3 µM), for inactives: at the highest dose reporter change, positive = more light; 340,000 tested, under 10 active; AID 2288; active = well fitted rising curve with a large enough effect; inconclusive = small, poorly fitted or top-dose-only effect; inactive = no such curve, though single readings can be large or run the other way;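 further: % of control where 0% means no effect; miR-21 action dims this reporter so a rising signal means less miR-21 action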
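HeLa cells stably expressing CMV-driven firefly luciferase with a downstream miR-21 binding sequence, endogenously expressing miR-21, were treated with titrations (up to about 40uM final) for 48 hours at 37 degree Celsius. Luciferase luminescence was read after lysis.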
Active calls of the source: *; i = inactive; ? = inconclusive; / = not tested or not shown; ! = a repeat was not active; [ ] = another dose, or the depositor's remark. A selection: hits, their analogues and other compounds. The true share with any hit is near 0.24%. Unless noted, calls follow the shape of the dose curve; as a rule, active = well fitted curve in the direction sought with a large enough effect; inconclusive = small, poorly fitted or top-dose-only effect, or another doubt; inactive = no such curve, though single readings can be large; an effect the other way counts as inactive or inconclusive.

SMILES	PTAP TSG101 blk	PTHR1 ag	GLS inh	USP2a inh	Eya2 inh	miR-21 reporter
CCCCCC(O)C1C(=O)OC(C)C(O)\C=C/C=C\C=C/C=C\C=C(\C)C(O)C(O)C(O)CC(O)CC(O)CC(O)CC(O)CC1O (stereo not drawn)	/	/	28µM*!	/	/	/
CCCCC[C@@H]1CCCCC[C@H](O)C[C@@H](O)[C@@H](O)/C=C/C(=O)O1	/	i	3%	/	/	/
CC1(O)CCC2C3CCC4=CC(=O)CCC4(C)C3(F)C(O)CC21C (stereo not drawn)	/	/	11%	/	/	/
O=C1NC(=S)NC(=O)C1=Cc1ccc2c(c1)CCN2CCCCl	1%	-12%	10µM*	-10%	4%	1%
CC(C)N1C(=O)/C(=C/C=C/c2ccco2)C(=O)N(Cc2ccco2)C1=O	-2%	-27%	?	?	9%	-3%
CCN1C(=O)C(=C/C=C/c2ccco2)C(=O)N(CC)C1=S	11%	-12%	7.1µM*	2%	24%	0%
CCc1cc(OC)c(CC(C)N)cc1OC (stereo not drawn)	/	/	8%[99.4 µM]	/	/	/
Cc1ccc(N2C(=O)/C(=C/c3ccc(CN(CCC#N)S(C)(=O)=O)o3)C(=O)NC2=S)cc1	-9%	-34%	11µM*	3%	-3%	-2%
CN(C)[C@@H]1C(=O)C(C(N)=O)=C(O)[C@@]2(O)C(=O)C3=C(O)c4c(O)cccc4[C@@](C)(O)C3C[C@@H]12 (stereo partly drawn)	2%	-22%	-34%	2%	-3%	/
CN(C)[C@@H]1C(=O)C(C(N)=O)=C(O)[C@@]2(O)C(=O)C3=C(O)c4c(O)cccc4[C@@](C)(O)[C@H]3[C@H](O)[C@@H]12	-13%	-15%	7.1µM*	?	18%	3%
CN(C)C1C(=O)C(C(N)=O)C(=O)C2(O)C(=O)C3C(=O)c4c(O)cccc4C(C)(O)C3C(O)C12 (stereo not drawn)	/	/	6.3µM*	/	/	/
O=C1[O][Sb-]23[O]C(=O)C([O]2)C2[O][Sb-]4([O]C(=O)C([O]4)C1[O]3)[O]C2=O	/	/	-7%	/	/	/
COc1cc(NC(=O)c2cc3cc4ccc(C)cc4nc3o2)cc(OC)c1OC	/	-65%	8%	/	/	18%
Cc1ccccc1CN1CCN(Cc2ccccc2)CC1	-8%	45µM*	3%	-4%	7%	-4%
Nc1cccc2c(O)cccc12	0%	-17%	13µM*	/	/	/
Nc1cccc2c(N)cccc12	/	/	54%[99.4 µM]	/	/	/
Cc1ccc2c(c1)[C@]13CCCC[C@@H]1[C@@H](C2)N(C)CC3	/	/	-2%	/	/	/
Cc1cc(/C=C2\C(=O)NC(=O)N(c3ccc(Br)cc3)C2=O)c(C)n1-c1cc(C(=O)O)cc(C(=O)O)c1	1%	i	10µM*	-1%	7%	0%
Cc1cc(/C=C2\C(=O)NC(=O)N(c3cccc(F)c3)C2=O)c(C)n1-c1cc(C(=O)O)cc(C(=O)O)c1	1%	-36%	35%	2%	-27%	3%
Cc1[nH]n(-c2ccccc2)c(=O)c1C(c1cccc([N+](=O)[O-])c1O)c1c(C)[nH]n(-c2ccccc2)c1=O	-4%	-25%	10µM*	-4%	16%	4%
O=C(O)c1cc(O)c(O)c(O)c1	/	/	10µM*	/	/	/
C[C@@H]1[C@H](O)[C@@H](C)C=CC=CCCC=CC=CC=CC=C[C@H](O[C@H]2O[C@@H](C)[C@H](O)[C@@H](N)[C@@H]2O)CC2O[C@](O)(C[C@@H](O)[C@H](O)CC[C@@H](O)C[C@@H](O)C[C@@H](O)CC(=O)O[C@H]1C)C[C@H](O)[C@H]2C(=O)O	/	/	46%	/	/	/
O=C(c1ccccc1)c1ccc(N=Nc2c(O)[nH]c(=O)[nH]c2=O)cc1	-5%	0%	10µM*	0%	0%	-8%
CCCOC(=O)Nc1ccc([As](=O)(O)O)cc1NC(=O)OCCC	-4%	-14%	5%	1%	-8%	-1%
CCOC(=O)Nc1ccc(NCc2ccc(F)cc2)nc1N	-5%	8%	2%	?	50µM*!	/

Three compounds from above, arranged by formula weight, descending:
SMILES	PTAP TSG101 blk	PTHR1 ag	GLS inh	USP2a inh	Eya2 inh	miR-21 reporter
CCCOC(=O)Nc1ccc([As](=O)(O)O)cc1NC(=O)OCCC	-4%	-14%	5%	1%	-8%	-1%
COc1cc(NC(=O)c2cc3cc4ccc(C)cc4nc3o2)cc(OC)c1OC	/	-65%	8%	/	/	18%
O=C(c1ccccc1)c1ccc(N=Nc2c(O)[nH]c(=O)[nH]c2=O)cc1	-5%	0%	10µM*	0%	0%	-8%

Following part
SMILES	PTAP TSG101 blk	PTHR1 ag	GLS inh	USP2a inh	Eya2 inh	miR-21 reporter
COc1ccc(N2C(=O)NC(=O)/C(=C\c3ccc([N+](=O)[O-])s3)C2=O)cc1	-5%	-18%	13µM*	0%	16%	-1%
CCC(=O)O[C@@](Cc1ccccc1)(c1ccccc1)[C@H](C)CN(C)C	/	/	0%[99.4 µM]	/	/	/
NCCc1cc(O)c(O)cc1O	-2%	-6%	10µM*!	/	/	/
CCN(CC)c1ccc(/C=C/[N+](=O)[O-])cc1	6%	-32%	3%	1%	14%	0%
O=[N+]([O-])/C=C/c1c(Cl)cccc1Cl	0%	-40%	7.9µM*	/	/	/
CC12CCC(=O)CC1CCC1C2CCC2(C)C1CCC2(C)O (stereo not drawn)	/	/	0%	/	/	/
COc1cccc2c1C(=O)c1c(O)c3c(c(O)c1C2=O)C[C@@](O)(C(=O)CO)C[C@@H]3O[C@H]1C[C@H](N)[C@H](OC2CCCCO2)[C@H](C)O1 (stereo partly drawn)	/	/	16µM*	/	/	/
Cc1c(N)nc([C@@H](CC(N)=O)NC[C@H](N)C(N)=O)nc1C(=O)N[C@H](C(=O)N[C@H](C)[C@H](O)[C@H](C)C(=O)N[C@@H](C(=O)NCCc1nc(-c2nc(C(=O)NCCC[S+](C)C)cs2)cs1)[C@H](C)O)[C@H](O[C@@H]1O[C@@H](CO)[C@@H](O)[C@H](O)[C@@H]1O[C@H]1O[C@H](CO)[C@H](O)[C@H](OC(N)=O)[C@@H]1O)c1cnc[nH]1	/	/	2%	/	/	/
CC1(C)CC/C(=C\c2ccc(Cl)cc2)C1(O)Cn1cncn1 (stereo not drawn)	/	/	2%[99.4 µM]	/	/	/
C=CCN1C(=O)NC(=O)/C(=C\c2ccc(-c3ccccc3[N+](=O)[O-])o2)C1=O	-2%	-2%	18µM*	4%	-5%	23%
CCC(=O)OC1[C@@H](N2CCCCC2)C[C@H]2[C@@H]3CC[C@H]4C[C@H](OC(C)=O)[C@@H](N5CCCCC5)C[C@]4(C)[C@H]3CC[C@]12C (stereo partly drawn)	/	/	0%	/	/	/
O=C(O)c1cccc2c1NC(C(=O)O)C1CC(Sc3ccccc3[N+](=O)[O-])C(Cl)C21 (stereo not drawn)	-4%	-26%	7.1µM*	?	-7%	14%
CC(=O)c1ccc2c(c1)C1C(Cl)C(Sc3ccccc3[N+](=O)[O-])CC1C(C(=O)O)N2 (stereo not drawn)	2%	-39%	-4%	2%	-2%	-8%

In the list so far, 2 have an aryl thioether with sulfur outside any ring:
SMILES	PTAP TSG101 blk	PTHR1 ag	GLS inh	USP2a inh	Eya2 inh	miR-21 reporter
O=C(O)c1cccc2c1NC(C(=O)O)C1CC(Sc3ccccc3[N+](=O)[O-])C(Cl)C21 (stereo not drawn)	-4%	-26%	7.1µM*	?	-7%	14%
CC(=O)c1ccc2c(c1)C1C(Cl)C(Sc3ccccc3[N+](=O)[O-])CC1C(C(=O)O)N2 (stereo not drawn)	2%	-39%	-4%	2%	-2%	-8%
